The target in test [1] is T1, human TRH receptor (Homo sapiens, UniProt P34981).
T1 sequence (P34981 1-398): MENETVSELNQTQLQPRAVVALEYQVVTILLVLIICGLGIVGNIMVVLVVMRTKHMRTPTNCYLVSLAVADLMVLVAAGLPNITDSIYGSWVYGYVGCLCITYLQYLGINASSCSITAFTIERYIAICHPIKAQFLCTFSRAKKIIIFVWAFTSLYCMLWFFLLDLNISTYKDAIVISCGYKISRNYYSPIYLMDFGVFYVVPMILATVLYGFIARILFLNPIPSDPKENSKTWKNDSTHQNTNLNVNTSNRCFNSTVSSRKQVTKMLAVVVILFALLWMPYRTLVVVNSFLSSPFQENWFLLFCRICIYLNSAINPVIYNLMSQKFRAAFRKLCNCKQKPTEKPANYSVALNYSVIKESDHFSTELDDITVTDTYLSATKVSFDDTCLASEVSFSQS
Briefly: Antagonism of [3H]TRH binding in CHO dhfr- cells transformed with human TRH receptor DNA (Examples 5 and 6). Set-up: translation frame (open reading frame) of the human TRH receptor was constructed on pUC118; expressed in transfected cells; host or cells: CHO dhfr- cells (plasmid pAKKO1.11 with the human TRH receptor open reading frame). The note with it: 10 nM [3H]TRH, 60 min.

Test [2] addresses T1, human TRH receptor. The test can be described thus: Release of [3H]-labeled arachidonic acid from CHO cells into which human TRH receptor DNAs were introduced (Example 7). Set-up: translation frame (open reading frame) of the human TRH receptor was constructed on pUC118; expressed in transfected cells; host or cells: CHO dhfr- cells (plasmid pAKKO1.11 with the human TRH receptor open reading frame). Type of test: cell-based. The protocol:
CHO cells into which the human TRH receptor DNAs obtained in Example 4 were subcultured at a density of 1.0×10^6 cells/well to a 12-well tissue culture plate (Sumitomo Bakelite) and cultivated for 24 hours. The medium was removed and replaced by a fresh medium. Then, [^3 H] […] arachidonic acid (du Pont/NEN, specific activity: 60-100 Ci/mmol) was added to give a concentration of 0.5 μCi/well. After addition of arachidonic acid, the cells were further cultivated for 24 hours, and washed three times with Hanks' balanced salt solution (HBSS) supplemented with 0.05% BSA. Thereafter, 495 μl/well of HBSS supplemented with 0.05% BSA was added thereto. Then, 5 μl of a test solution was added thereto, and incubation was conducted for 30 minutes at room temperature to release arachidonic acid in the medium. HBSS (400 μl) of the supernatant was recovered, and mixed with liquid scintillator A (Wako Pure Chemical Industries). The amount of released [^3 H]-labeled arachidonic acid was measured by use of a liquid scintillation counter (Beckmann).
Further, in the receptor binding experiment of Example 6, the releasing activity of arachidonic acid was measured using 4 kinds of compounds strongly that can antagonize the binding of [^3 H] TRH (compound Nos. 10, 13, 16 and 18).

Consider Blc His Pro NHMe [Compound 8], for which the “Antagonistic Rate (%) at Each Concentration (-log M)” value (from here on “Antagonistic Rate (%) … (-log M)”) with human TRH receptor [1] (-log M = 3, 1000 µM) is 79.8%; with human TRH receptor [1] (-log M = 4, 100 µM), 35.1%; with human TRH receptor [1] (-log M = 5) it was 4.6%; with human TRH receptor [1] (-log M = 6, 1 µM) it was 0.7%; with human TRH receptor [1] (-log M = 7, 0.1 µM), 4.8%; with human TRH receptor [1] (-log M = 8) it was 6.7%. Besides, the “Antagonistic Rate (%) … (-log M)” value in the test with human TRH receptor [1] (-log M = 9, 0.001 µM) stood at 4.7%; with human TRH receptor [1] (-log M = 10, 0.0001 µM), 6.1%.
In the case of Blc His Pro [Compound 7], the “Antagonistic Rate (%) … (-log M)” value with human TRH receptor [1] (-log M = 4, 100 µM) is 0.7%; with human TRH receptor [1] (-log M = 5), -0.1%.
As to Blc His Pro NMBu [Compound 9], the “Antagonistic Rate (%) … (-log M)” value is on record as 99.4% with human TRH receptor [1] (-log M = 3, 1000 µM); 95.8% with human TRH receptor [1] (-log M = 4, 100 µM); 72.8% with human TRH receptor [1] (-log M = 5); 33.8% with human TRH receptor [1] (-log M = 6, 1 µM); 7.6% in the test with human TRH receptor [1] (-log M = 7, 0.1 µM); 4.9% with human TRH receptor [1] (-log M = 8). In addition, the “Antagonistic Rate (%) … (-log M)” value was determined as 6.4% with human TRH receptor [1] (-log M = 9, 0.001 µM) and 5.3% with human TRH receptor [1] (-log M = 10, 0.0001 µM).
For Blc His Pro NH2 [Compound 5], the “Antagonistic Rate (%) … (-log M)” value with human TRH receptor [1] (-log M = 3, 1000 µM) was 98.9%; with human TRH receptor [1] (-log M = 4, 100 µM) it was 89.9%; with human TRH receptor [1] (-log M = 5), 54.0%; in the test with human TRH receptor [1] (-log M = 6, 1 µM), 12.2%; in the test with human TRH receptor [1] (-log M = 8), -2.2%; in the test with human TRH receptor [1] (-log M = 9, 0.001 µM), -0.8%. Moreover, in the test with human TRH receptor [1] (-log M = 10, 0.0001 µM), the “Antagonistic Rate (%) … (-log M)” value was -2.1%.
For Otc His Pro NHMe [Compound 11], the “Antagonistic Rate (%) … (-log M)” value with human TRH receptor [1] (-log M = 3, 1000 µM) is reported as 99.6%; in the test with human TRH receptor [1] (-log M = 4, 100 µM), 99.8%; with human TRH receptor [1] (-log M = 5), 79.8%; with human TRH receptor [1] (-log M = 6, 1 µM), 45.4%; with human TRH receptor [1] (-log M = 7, 0.1 µM), 11.9%; with human TRH receptor [1] (-log M = 8) it was 1.1%. Also, the “Antagonistic Rate (%) … (-log M)” value with human TRH receptor [1] (-log M = 9, 0.001 µM) was 6.6%; with human TRH receptor [1] (-log M = 10, 0.0001 µM) it was 6.6%.
Kpc His Pro NHBu [Compound 10]: the “Releasing activity of arachidonic acid, in words” value with human TRH receptor [2] (10 μM, 30 minutes, room temperature (FIG. 11)) is on record as “promoted releasion of arachidonic acid at a concentration of 10 μM similarly to TRH”. Further, in the test with human TRH receptor [2] (concluded from arachidonic acid release at 10 μM), the “Agonist activity to the human TRH receptor, in words” value is listed as “agonist activity to the human TRH receptor”.
On to “pGlu His (EH; N-terminal pyroglutamic acid (pGlu)) [Compound 1]”, for which the “Antagonistic Rate (%) … (-log M)” value is -6.7% with human TRH receptor [1] (-log M = 4, 100 µM) and -2.6% in the test with human TRH receptor [1] (-log M = 5).

These data come from patent US5879896A, “Method of screening for inhibitors of human thyrotropin releasing hormone (TRH) receptor” (Takeda Chemical Industries, Ltd., priority 1993, dated 1999).
